From PubChem BioAssay AID588456 (National Center for Advancing Translational Sciences (NCATS), 2011) come the findings set out here.

The chains behind the UniProt entries cited, without tags or fusion partners.
UniProt O89049, whole entry: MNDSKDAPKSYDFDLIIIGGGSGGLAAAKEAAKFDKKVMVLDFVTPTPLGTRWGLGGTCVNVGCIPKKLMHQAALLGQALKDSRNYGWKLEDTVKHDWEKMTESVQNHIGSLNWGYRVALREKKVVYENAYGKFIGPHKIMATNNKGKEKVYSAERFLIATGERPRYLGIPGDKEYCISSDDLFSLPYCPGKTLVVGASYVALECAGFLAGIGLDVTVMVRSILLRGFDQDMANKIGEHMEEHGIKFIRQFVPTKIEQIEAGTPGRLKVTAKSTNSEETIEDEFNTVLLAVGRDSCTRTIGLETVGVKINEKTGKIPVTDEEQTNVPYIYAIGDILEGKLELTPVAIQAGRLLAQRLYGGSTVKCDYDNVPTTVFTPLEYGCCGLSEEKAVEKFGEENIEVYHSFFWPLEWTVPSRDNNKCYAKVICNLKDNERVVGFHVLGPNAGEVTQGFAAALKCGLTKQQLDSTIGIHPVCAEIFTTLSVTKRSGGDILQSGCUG

This is a selection; strong and weak results do not stand in their true shares. Calls of active or inactive are those of the source. The call rests on the fitted dose curve; in most records, active means well fitted inhibition curve with a large enough effect; inconclusive means small, poorly fitted or top-dose-only effect; inactive means no such curve, though single readings can be large or run the other way.
On the % scale 0 is the no-effect control and ±100 the full control effect.

This assay concerns the target Thioredoxin reductase 1, cytoplasmic (Rattus norvegicus) (UniProt O89049). The experiment in a line: qHTS Assay for Substrates of Mammalian Selenoprotein Thioredoxin Reductase 1 (TrxR1): qHTS. Further: nearly all actives have a fitted effect of over 50% in size. Particulars: purified TrxR1 substrate turnover, NADPH consumption readout; at 114 µM (top of the series). For orientation: qHTS replaces the single test concentration by a dilution series.
Take `CCC(=O)N(c1ccccc1)C1(COC)CCN(CCn2nnn(CC)c2=O)CC1`: the activity change, negative = substrate turnover was inactive: 3.94%. For `CCC(=O)N(c1ccccc1)C1(COC)CCN(CCc2cccs2)CC1`, the activity change, negative = substrate turnover was inactive: -0.567%.
